Drawing on ChEMBL document CHEMBL1127769, “Synthesis of new pyrazolo[4,3-e]1,2,4-triazolo[1,5-c] pyrimidine and 1,2,3-triazolo[4,5-e]1,2,4-triazolo[1,5-c] pyrimidine displaying potent and selective activity as A2a adenosine receptor antagonists” (Bioorg Med Chem Lett, 1994), this text covers Ki for one compound.

By UniProt entry, the sequences of proteins in these tests, tags left out.
UniProt P25099, whole entry: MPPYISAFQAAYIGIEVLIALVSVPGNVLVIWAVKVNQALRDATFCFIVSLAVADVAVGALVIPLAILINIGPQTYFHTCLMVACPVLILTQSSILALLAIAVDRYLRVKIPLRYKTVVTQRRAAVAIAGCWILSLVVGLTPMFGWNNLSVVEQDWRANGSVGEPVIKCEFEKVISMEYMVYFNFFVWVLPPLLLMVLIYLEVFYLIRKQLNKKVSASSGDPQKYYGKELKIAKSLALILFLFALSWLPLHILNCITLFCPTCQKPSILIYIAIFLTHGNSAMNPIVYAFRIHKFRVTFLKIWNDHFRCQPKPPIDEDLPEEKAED

pKi: −log10 of the molar value.

In the experiment the target is Adenosine receptor A1 (Rattus norvegicus, UniProt P25099). The experiment can be described thus: biochemical.

On to `CCCn1c(=O)c2nc(C3CC3)[nH]c2n(CCC)c1=O`, for which the negative-log Ki (pKi) (usually the negative decadic logarithm of the Ki, by convention in mol/L) is 8.82.
